Target: T1, IGF1R (Homo sapiens, UniProt P08069)
T1 construct: host or cells: U2OS
Assay: PathHunter IGF1R-PK / SH2-containing protein-EA assay in U2OS cells, agonist mode
Type: cell-based
Conditions: 3 hours at room temperature

- assay window: 4.4 fold
Substance: IGF1: IGF1 (Peprotech, Cat AF-100-11), a known ligand for IGF1R

— US8067155B2, “Receptor tyrosine kinase assays” (DiscoveRx Corporation, priority 2008, dated 2011)
